According to US7192924B2, “Corticotropin releasing factor 2 receptor agonists” (priority 2002, dated 2007):
Like-named read-outs stand apart in the source and are kept apart here.

Columns and labels:
[1] = molecular target: T1, CRF2R (Homo sapiens, UniProt Q13324); assay: CRF2R agonist activity (EC50, Emax), called comparative CRF binding; type: cell-based
T1 sequence (Q13324 1-411): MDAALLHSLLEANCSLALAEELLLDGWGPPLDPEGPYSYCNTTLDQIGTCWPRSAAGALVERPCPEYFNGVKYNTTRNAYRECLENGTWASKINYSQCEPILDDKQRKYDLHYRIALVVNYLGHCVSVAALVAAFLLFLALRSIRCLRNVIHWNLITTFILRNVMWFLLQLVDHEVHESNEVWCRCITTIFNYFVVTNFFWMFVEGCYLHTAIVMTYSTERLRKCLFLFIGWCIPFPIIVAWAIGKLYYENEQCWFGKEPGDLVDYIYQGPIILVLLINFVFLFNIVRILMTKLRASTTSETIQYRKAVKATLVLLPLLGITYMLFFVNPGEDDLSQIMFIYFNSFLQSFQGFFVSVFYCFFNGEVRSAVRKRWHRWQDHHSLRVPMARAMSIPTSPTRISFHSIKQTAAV
Method in brief: (§1)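 Single-subtype CRFR cells, peptide vs vehicle, cAMP via CRE-reporter or lysate assay; background from other CRFR type subtracted if present.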

[2] = molecular target: T2, CRF1R (Homo sapiens, UniProt P34998); assay: CRF1R agonist activity (EC50, Emax), called comparative CRF binding; type: cell-based
T2 sequence (P34998 24-415): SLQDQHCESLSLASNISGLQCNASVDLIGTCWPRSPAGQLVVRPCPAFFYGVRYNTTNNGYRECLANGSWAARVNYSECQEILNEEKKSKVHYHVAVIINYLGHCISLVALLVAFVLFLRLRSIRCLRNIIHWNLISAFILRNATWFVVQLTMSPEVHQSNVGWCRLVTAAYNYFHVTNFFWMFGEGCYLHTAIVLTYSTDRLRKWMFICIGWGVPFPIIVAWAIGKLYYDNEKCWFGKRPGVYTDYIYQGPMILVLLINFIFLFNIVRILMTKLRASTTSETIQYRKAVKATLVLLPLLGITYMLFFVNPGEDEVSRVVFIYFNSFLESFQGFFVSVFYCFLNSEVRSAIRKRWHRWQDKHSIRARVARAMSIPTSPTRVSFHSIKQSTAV
Method in brief: as §1

| SMILES | EC50 ([1]; read-out: CRF2R EC50) | EC50 ([2]; read-out: CRF1R EC50) | EC50 [1] | EC50 [2] |
| --- | --- | --- | --- | --- |
| CC[C@H](C)[C@H](NC(=O)[C@@H](NC(=O)[C@H](C)NC(=O)[C@H](CC(C)C)NC(=O)[C@H](CC(C)C)NC(=O)[C@H](CC(C)C)NC(=O)[C@H](C)NC(=O)[C@H](CC(N)=O)NC(=O)[C@H](CC(N)=O)NC(=O)[C@H](C)NC(=O)[C@H](C)NC(=O)[C@H](CCC(N)=O)NC(=O)[C@H](CCC(N)=O)NC(=O)[C@H](CCCCN)NC(=O)[C@H](CCC(=O)O)NC(=O)[C@H](CCCCN)NC(=O)[C@H](CCC(=O)O)NC(=O)[C@H](CCC(N)=O)NC(=O)[C@H](CCCCN)NC(=O)[C@H](CCC(=O)O)NC(=O)[C@@H](NC(=O)[C@H](CCC(=O)O)NC(=O)[C@@H](NC(=O)[C@@H](NC(=O)[C@H](CCCCN)NC(=O)[C@H](CCCNC(=N)N)NC(=O)[C@H](CC(C)C)NC(=O)[C@H](CC(C)C)NC(=O)[C@H](CCC(N)=O)NC(=O)[C@H](Cc1ccccc1)NC(=O)[C@@H]1CCCN1C(=O)[C@H](CC(C)C)NC(=O)[C@H](CC(=O)O)NC(=O)[C@@H](NC(=O)[C@H](CO)NC(=O)[C@@H](NC(=O)[C@@H]1CCCN1C(=O)[C@@H]1CCCN1C(=O)CNC(=O)[C@@H]1CCC(=O)N1)[C@@H](C)CC)[C@@H](C)CC)C(C)C)[C@@H](C)CC)[C@@H](C)CC)[C@@H](C)O)C(N)=O [compound 352] | 8.26 nM | 780 nM |  |  |
| CC[C@H](C)[C@H](NC(=O)[C@H](CCCNC(=N)N)NC(=O)[C@H](C)NC(=O)[C@H](CC(N)=O)NC(=O)[C@@H](NC(=O)[C@@H](NC(=O)[C@H](C)NC(=O)[C@H](CCC(N)=O)NC(=O)[C@H](CCC(N)=O)NC(=O)[C@H](CCCCN)NC(=O)[C@H](CCC(=O)O)NC(=O)[C@H](CCCCN)NC(=O)[C@H](CCC(=O)O)NC(=O)[C@H](CCC(N)=O)NC(=O)[C@H](CCCCN)NC(=O)[C@H](CCC(=O)O)NC(=O)[C@@H](NC(=O)[C@H](CCC(=O)O)NC(=O)[C@@H](NC(=O)[C@H](CCSC)NC(=O)[C@H](CCCCN)NC(=O)[C@H](CCCNC(=N)N)NC(=O)[C@H](CC(C)C)NC(=O)[C@H](CC(C)C)NC(=O)[C@H](Cc1ccc(O)cc1)NC(=O)[C@H](CC(C)C)NC(=O)[C@@H]1CCCN1C(=O)[C@H](CC(C)C)NC(=O)[C@H](CC(=O)O)NC(=O)[C@@H](NC(=O)[C@H](CO)NC(=O)[C@@H](NC(=O)[C@@H]1CCCN1C(=O)[C@@H]1CCCN1C(=O)CNC(=O)[C@@H]1CCC(=O)N1)[C@@H](C)CC)[C@@H](C)CC)[C@@H](C)CC)[C@@H](C)CC)[C@@H](C)O)[C@@H](C)O)C(=O)N[C@@H](CC(C)C)C(=O)N[C@@H](C)C(=O)N[C@@H](CCCNC(=N)N)C(=O)N[C@H](C(N)=O)C(C)C [compound 353] |  |  | 4.75 nM | 230 nM |
| CC[C@H](C)[C@H](NC(=O)[C@@H](NC(=O)[C@H](C)NC(=O)[C@H](CC(C)C)NC(=O)[C@H](CC(C)C)NC(=O)[C@H](CC(C)C)NC(=O)[C@H](C)NC(=O)[C@H](CC(N)=O)NC(=O)[C@H](CC(N)=O)NC(=O)[C@H](C)NC(=O)[C@H](C)NC(=O)[C@H](CCC(N)=O)NC(=O)[C@H](CCC(N)=O)NC(=O)[C@H](CCCCN)NC(=O)[C@H](CCC(=O)O)NC(=O)[C@H](CCCCN)NC(=O)[C@H](CCC(=O)O)NC(=O)[C@H](CCC(N)=O)NC(=O)[C@H](CCCCN)NC(=O)[C@H](CCC(=O)O)NC(=O)[C@@H](NC(=O)[C@H](CCC(=O)O)NC(=O)[C@@H](NC(=O)[C@@H](NC(=O)[C@H](CCC(=O)O)NC(=O)[C@H](CCCNC(=N)N)NC(=O)[C@H](CC(C)C)NC(=O)[C@H](CC(C)C)NC(=O)[C@H](CCC(N)=O)NC(=O)[C@H](Cc1ccccc1)NC(=O)[C@@H]1CCCN1C(=O)[C@H](CC(C)C)NC(=O)[C@H](CC(=O)O)NC(=O)[C@@H](NC(=O)[C@H](CO)NC(=O)[C@@H](NC(=O)[C@@H]1CCCN1C(=O)[C@@H]1CCCN1C(=O)CNC(=O)[C@@H]1CCC(=O)N1)[C@@H](C)CC)[C@@H](C)CC)C(C)C)[C@@H](C)CC)[C@@H](C)CC)[C@@H](C)O)C(N)=O [compound 359] |  |  | 23.1 nM | 230 nM |
| CC[C@H](C)[C@H](NC(=O)[C@@H](NC(=O)[C@H](C)NC(=O)[C@H](CC(C)C)NC(=O)[C@H](CC(C)C)NC(=O)[C@H](CC(C)C)NC(=O)[C@H](C)NC(=O)[C@H](CC(N)=O)NC(=O)[C@H](CC(N)=O)NC(=O)[C@H](C)NC(=O)[C@H](C)NC(=O)[C@H](CCC(N)=O)NC(=O)[C@H](CCC(N)=O)NC(=O)[C@H](CCCCN)NC(=O)[C@H](CCC(=O)O)NC(=O)[C@H](CCCCN)NC(=O)[C@H](CCC(=O)O)NC(=O)[C@H](CCC(N)=O)NC(=O)[C@H](CCCCN)NC(=O)[C@H](CCC(=O)O)NC(=O)[C@@H](NC(=O)[C@H](CCC(=O)O)NC(=O)[C@@H](NC(=O)[C@H](CC(C)C)NC(=O)[C@H](CC(C)C)NC(=O)[C@H](CCCNC(=N)N)NC(=O)[C@H](CC(C)C)NC(=O)[C@H](CC(C)C)NC(=O)[C@H](CCC(N)=O)NC(=O)[C@H](Cc1ccccc1)NC(=O)[C@@H]1CCCN1C(=O)[C@H](CC(C)C)NC(=O)[C@H](CC(=O)O)NC(=O)[C@@H](NC(=O)[C@H](CO)NC(=O)[C@@H](NC(=O)[C@@H]1CCCN1C(=O)[C@@H]1CCCN1C(=O)CNC(=O)[C@@H]1CCC(=O)N1)[C@@H](C)CC)[C@@H](C)CC)[C@@H](C)CC)[C@@H](C)CC)[C@@H](C)O)C(N)=O [compound 360] |  |  | 6.12 nM | 157 nM |
| CC[C@H](C)[C@H](NC(=O)[C@@H](NC(=O)[C@H](C)NC(=O)[C@H](CC(C)C)NC(=O)[C@H](CC(C)C)NC(=O)[C@H](CC(C)C)NC(=O)[C@H](C)NC(=O)[C@H](CC(N)=O)NC(=O)[C@H](CC(N)=O)NC(=O)[C@H](C)NC(=O)[C@H](C)NC(=O)[C@H](CCC(N)=O)NC(=O)[C@H](CCC(N)=O)NC(=O)[C@H](CCCCN)NC(=O)[C@H](CCC(=O)O)NC(=O)[C@H](CCCCN)NC(=O)[C@H](CCC(=O)O)NC(=O)[C@H](CCC(N)=O)NC(=O)[C@H](CCCCN)NC(=O)[C@H](CCC(=O)O)NC(=O)[C@@H](NC(=O)[C@H](CCC(=O)O)NC(=O)[C@@H](NC(=O)[C@H](C)NC(=O)[C@H](CCCCN)NC(=O)[C@H](CCCNC(=N)N)NC(=O)[C@H](CC(C)C)NC(=O)[C@H](CC(C)C)NC(=O)[C@H](CCC(N)=O)NC(=O)[C@H](Cc1ccccc1)NC(=O)[C@@H]1CCCN1C(=O)[C@H](CC(C)C)NC(=O)[C@H](CC(=O)O)NC(=O)[C@@H](NC(=O)[C@H](CO)NC(=O)[C@@H](NC(=O)[C@@H]1CCCN1C(=O)[C@@H]1CCCN1C(=O)CNC(=O)[C@@H]1CCC(=O)N1)[C@@H](C)CC)[C@@H](C)CC)[C@@H](C)CC)[C@@H](C)CC)[C@@H](C)O)C(N)=O [compound 364] | 13.2 nM | ≥ 1000 nM |  |  |
| CC[C@H](C)[C@H](NC(=O)[C@@H](NC(=O)[C@H](CC(=O)O)NC(=O)[C@H](CC(C)C)NC(=O)[C@H](CC(C)C)NC(=O)[C@H](CC(C)C)NC(=O)[C@H](C)NC(=O)[C@H](CC(N)=O)NC(=O)[C@H](CC(N)=O)NC(=O)[C@H](C)NC(=O)[C@H](C)NC(=O)[C@H](CCC(N)=O)NC(=O)[C@H](CCC(N)=O)NC(=O)[C@H](CCCCN)NC(=O)[C@H](CCC(=O)O)NC(=O)[C@H](CCCCN)NC(=O)[C@H](CCC(=O)O)NC(=O)[C@H](CCC(N)=O)NC(=O)[C@H](CCCCN)NC(=O)[C@H](CCC(=O)O)NC(=O)[C@@H](NC(=O)[C@H](CCC(=O)O)NC(=O)[C@@H](NC(=O)[C@H](C)NC(=O)[C@H](CCCCN)NC(=O)[C@H](CCCNC(=N)N)NC(=O)[C@H](CC(C)C)NC(=O)[C@H](CC(C)C)NC(=O)[C@H](CCC(N)=O)NC(=O)[C@H](Cc1ccccc1)NC(=O)[C@@H]1CCCN1C(=O)[C@H](CC(C)C)NC(=O)[C@H](CC(=O)O)NC(=O)[C@@H](NC(=O)[C@H](CO)NC(=O)[C@@H](NC(=O)[C@@H]1CCCN1C(=O)[C@@H]1CCCN1C(=O)CNC(=O)[C@@H]1CCC(=O)N1)[C@@H](C)CC)[C@@H](C)CC)[C@@H](C)CC)[C@@H](C)CC)[C@@H](C)O)C(N)=O [compound 365] |  |  | 23.5 nM | ≥ 1000 nM |
| CC[C@H](C)[C@H](NC(=O)[C@@H](NC(=O)[C@H](CC(=O)O)NC(=O)[C@H](CC(C)C)NC(=O)[C@H](CC(C)C)NC(=O)[C@H](CCCNC(=N)N)NC(=O)[C@H](C)NC(=O)[C@H](CC(N)=O)NC(=O)[C@H](CC(N)=O)NC(=O)[C@H](C)NC(=O)[C@H](C)NC(=O)[C@H](CCC(N)=O)NC(=O)[C@H](CCC(N)=O)NC(=O)[C@H](CCCCN)NC(=O)[C@H](CCC(=O)O)NC(=O)[C@H](CCCCN)NC(=O)[C@H](CCC(=O)O)NC(=O)[C@H](CCC(N)=O)NC(=O)[C@H](CCCCN)NC(=O)[C@H](CCC(=O)O)NC(=O)[C@@H](NC(=O)[C@H](CCC(=O)O)NC(=O)[C@@H](NC(=O)[C@@H](NC(=O)[C@H](CCCCN)NC(=O)[C@H](CCCNC(=N)N)NC(=O)[C@H](CC(C)C)NC(=O)[C@H](CC(C)C)NC(=O)[C@H](CCC(N)=O)NC(=O)[C@H](Cc1ccc(O)cc1)NC(=O)[C@@H]1CCCN1C(=O)[C@@H](NC(=O)[C@H](CC(=O)O)NC(=O)[C@@H](NC(=O)[C@H](CO)NC(=O)[C@@H](NC(=O)[C@@H]1CCCN1C(=O)[C@@H]1CCCN1C(=O)CNC(=O)[C@@H]1CCC(=O)N1)[C@@H](C)CC)[C@@H](C)CC)C(C)C)C(C)C)[C@@H](C)CC)[C@@H](C)CC)[C@@H](C)O)C(N)=O [compound 374] |  |  | 15.8 nM | ≥ 1000 nM |
